Screens as filed in PubChem BioAssay.
TrxR1 substrate – substrates of rat thioredoxin reductase 1 | O89049 | purified TrxR1 substrate turnover, NADPH consumption readout | Potency, µM (top dose mostly 114 µM), for inactives: at the highest dose activity change, negative = substrate turnover | 0.01% of 390,000 active | AID 588456; also: potency is read from the fitted curve at half-maximal effect; % is scaled to controls: 0 for no effect and ±100 for the full control effect; nearly all actives have a fitted effect of over 50% in size
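Rat TrxR1, dispensed at 90 nM, was prereduced with 400 uM NADPH (final) for 5 min at ~22 deg C, then incubated with compound 15 min before 400 uM selenite. A first-read NADPH fluorescence drop versus no-compound background flagged substrates.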
Apoferritin bind – binds horse apoferritin like a general anesthetic | 0.074% of 350,000 active | Potency, µM (top dose mostly 77.5 µM), for inactives: at the highest dose activity change, negative = displacement, hits mostly inhibitors | apoferritin/1-aminoanthracene competitive binding, fluorescence | P02791; also: potency is read from the fitted curve at half-maximal effect; % is scaled to controls: 0 for no effect and ±100 for the full control effect; nearly all actives have a fitted effect of over 20% in size
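Horse-spleen apoferritin (10 uM) was mixed with 50% saturated 1-aminoanthracene in PBS, exposed to compounds for 10 min at room temperature, and read for fluorescence (ex 380 nm, em 535 nm). Competitive displacement was fitted with a four-parameter Hill equation.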
miR-21 reporter – raises the signal of a miR-21 reporter | HeLa miR-21 FLuc reporter, luciferase, 48 h | Potency, µM (doses to about 38.3 µM), for the others: at the highest dose reporter change, positive = more light | 340,000 tested, under 10 active | AID 2288; active = well fitted rising curve with a large enough effect; inconclusive = small, poorly fitted or top-dose-only effect; inactive = no such curve, though single readings can be large or run the other way;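 also: % of control where 0% means no effect; miR-21 action dims this reporter so a rising signal means less miR-21 action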
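Compounds were titrated across several concentrations (up to approximately 40 uM) and incubated 48 hours with HeLa miR-21-FLuc reporter cells (miR-21 target sequence downstream of FLuc, endogenous miR-21). Readout was firefly luciferase luminescence after lytic detection reagent.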
ClpP mod – qHTS Assay for Activators of ClpP | ATP-dependent Clp protease proteolytic subunit (Bacillus subtilis (strain 168)), P80244 | purified B. subtilis ClpP, FRET peptide cleavage, 20 min | Potency, µM (doses to about 57.5 µM), inactives show at the top dose activity change, negative = active | 1.9% of 340,000 active | AID 651965, 2013; active = well fitted falling curve with a large enough effect; inconclusive = small, poorly fitted or top-dose-only effect; inactive = no such curve, though single readings can be large or run the other way; also: potency is read from the fitted curve at half-maximal effect; the source files actives as falling curves though it sought activators and does not explain the sign; nearly all actives have a fitted effect of over 65% in size
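FRET quenching reversal measured ClpP activation: 10 microg/mL B. subtilis ClpP at pH 8 with the FRET-FV decapeptide, read at 430 nm after 320 nm excitation. The 20-min minus 0-min signal was scaled between DMSO/no-enzyme wells and ADEP (5.8 microM final).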
rTrxR1 inhibitor – rat TrxR1 inhibition; O89049; recombinant rTrxR1, NADPH fluorescence consumption, selenite substrate; Potency, µM (top dose mostly 114 µM), inactives show at the top dose activity change, negative = inhibition, actives largely listed as inhibitors; 1% of 390,000 active; AID 588453; also: potency is read from the fitted curve at half-maximal effect; % is scaled to controls: 0 for no effect and ±100 for the full control effect; nearly all actives have a fitted effect of over 65% in size
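Rat TrxR1 (90 nM in the dispensed reagent) was pre-reduced with 400 uM NADPH for 5 min at room temperature, then incubated with compound for 15 min. After 400 uM selenite was added, NADPH fluorescence (Ex 340/Em 450 nm) was followed for 8 min.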
* hit, by the source's call; u = inconclusive; x = no result; [ ] = remark or other dose. A selection: hits, their analogues and other compounds. The true share with any hit is near 2.5%. Unless noted, calls follow the shape of the dose curve; as a rule, active = well fitted curve in the direction sought with a large enough effect; inconclusive = small, poorly fitted or top-dose-only effect, or another doubt; inactive = no such curve, though single readings can be large; an effect the other way counts as inactive or inconclusive.

By UniProt entry, the sequences of proteins in these tests, tags left out.
ATP-dependent Clp protease proteolytic subunit (Bacillus subtilis (strain 168)), P80244, UniProt P80244, whole entry, looked up: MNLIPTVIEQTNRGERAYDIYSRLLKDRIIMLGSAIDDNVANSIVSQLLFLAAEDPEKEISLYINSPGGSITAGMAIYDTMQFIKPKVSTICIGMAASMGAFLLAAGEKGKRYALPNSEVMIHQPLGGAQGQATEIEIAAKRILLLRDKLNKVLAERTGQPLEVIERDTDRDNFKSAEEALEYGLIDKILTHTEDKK

Field names: A = TrxR1 substrate; B = Apoferritin bind; C = miR-21 reporter; D = ClpP mod; E = rTrxR1 inhibitor
(1) CCCn1c(=O)[nH]c(=O)c2c1nc(-c1ccc3c(c1)OCCO3)n2CCN1CCOCC1
  A = 16% | B = -12% | C = -2% | D = 32µM* | E = 6%
(2) CCCn1c(=O)[nH]c(=O)c2c1nc(-c1ccc(OC(F)F)cc1)n2CCN1CCOCC1
  A = -5% | B = -1% | C = -3% | D = -8% | E = 12%[57.1 µM]
(3) CCc1nnc2sc(-c3ccc(NC(=O)c4ccco4)cc3)nn12
  A = 7% | B = -13% | C = -32% | D = -19% | E = 0%
(4) CCc1nnc2sc(-c3ccc(NC(=O)c4ccc5c(c4)OCCO5)cc3)nn12
  A = 51% | B = 1% | C = -5% | D = 28µM* | E = 48%
(5) COc1ccc(-c2csc3ncnc(Nc4ccc(OC)c(OC)c4)c23)cc1
  A = 1%[57.1 µM] | B = 49% | C = 20% | D = 5% | E = 13%[57.1 µM]
(6) CC(NC(=O)c1cccs1)C1CCCO1 (configuration not stated)
  A = 8%[57.1 µM] | B = -6% | C = 2% | D = 28µM* | E = 6%[57.1 µM]
(7) O=C(NC1CCCCC1)c1cccs1
  A = -3% | B = 13µM* | C = -16% | D = 2% | E = -5%
(8) O=C(Cc1cccs1)NC1(C(=O)NC2CCCC2)CCCCC1
  A = 4% | B = -9% | C = -1% | D = 25µM* | E = 10%
(9) CC(=O)c1[nH]c(C)c(C(=O)NCc2ccc(Cl)cc2)c1C
  A = -5% | B = 47% | C = 1% | D = -1% | E = 1%
(10) CCCCN(C)S(=O)(=O)c1cc(-c2nnc3c4ccccc4c(C)nn23)ccc1C
  A = 11%[57.1 µM] | B = -16% | C = -12% | D = -8% | E = 34%[57.1 µM]
(11) COc1ccc(CCNC(=O)CCc2cn(Cc3ccc(C)cc3)c3ccccc23)c(OC)c1OC
  A = -5% | B = 70% | C = 6% | D = u | E = 20%
(12) CCCCN(C)c1nnc(NC(=O)Nc2cccc(C(C)=O)c2)s1
  A = -10% | B = u | C = -2% | D = 0% | E = 0%
(13) CC1=C(C#N)C(c2cccnc2)C2=C(CC(c3ccc(Cl)cc3)CC2=O)N1 (configuration not stated)
  A = 117% | B = 214% | C = -1% | D = 28µM* | E = -13%
(14) CC1=C(C#N)C(c2ccc(O)cc2)C2=C(CCCC2=O)N1 (configuration not stated)
  A = 13% | B = 33% | C = 0% | D = x | E = -17%
(15) CNc1oc(-c2ccccc2Cl)nc1C#N
  A = 18% | B = -13% | C = -51% | D = u | E = 7%[57.1 µM]
(16) CNc1oc(-c2cccc3ccccc23)nc1C#N
  A = 132% | B = 79% | C = -45% | D = 16µM* | E = -4%
(17) CNc1oc(-c2ccc(Cl)cc2)nc1C#N
  A = 190% | B = 29% | C = -66% | D = -4% | E = 40µM*
(18) O=C(CC1Sc2ncnn2C1=O)Nc1ccc(Cl)cc1 (configuration not stated)
  A = 8%[57.1 µM] | B = -16% | C = 0% | D = x | E = u
(19) COc1ccc(NC(=O)CC2Sc3ncnn3C2=O)cc1 (configuration not stated)
  A = 11%[57.1 µM] | B = -11% | C = -7% | D = 0% | E = 1.6µM*
(20) CCOC(=O)c1ccc(NC(=O)CC2Sc3ncnn3C2=O)cc1 (configuration not stated)
  A = 11% | B = -12% | C = 0% | D = -1% | E = 1.8µM*
(21) CCOC(=O)c1ccc(NC(=O)CC2SC(=NC)N(C)C2=O)cc1 (configuration not stated)
  A = 1% | B = 1% | C = -6% | D = -3% | E = 8%
(22) CCN(C(=O)COc1ccc(C)nc1[N+](=O)[O-])C1CCS(=O)(=O)C1 (configuration not stated)
  A = 10%[57.1 µM] | B = -4% | C = -1% | D = 10µM* | E = 20%[57.1 µM]
(23) COc1ccc(NC(=O)c2cc(Cl)ccc2Cl)c([N+](=O)[O-])c1
  A = -4% | B = -4% | C = -8% | D = 28µM* | E = -4%
(24) COC(=O)c1ccc(C2CC(=O)NC3=C2C(=O)CCC3)cc1 (configuration not stated)
  A = -16% | B = -6% | C = -1% | D = -1% | E = 22%[57.1 µM]
(25) COC(=O)c1ccc(COc2ccc(C3C4=C(CCCC4=O)Nc4onc(C)c43)cc2)cc1 (configuration not stated)
  A = 30% | B = -7% | C = -17% | D = 28µM* | E = 9%
(26) COP(=O)(OC)c1ccc(NCc2cc(O)ccc2O)cc1
  A = -5% | B = x | C = x | D = 0% | E = 79µM*
(27) Cc1c(-c2nsc(NC(=O)c3ccc(Cl)cc3)n2)nnn1-c1ccc(C(C)C)cc1
  A = -5%[57.1 µM] | B = -2% | C = -13% | D = 25µM* | E = 8%[57.1 µM]
(28) O=C1C=C(NCc2ccccc2)c2ccccc2C1=O
  A = 16µM* | B = -1% | C = u | D = -5% | E = u
(29) Cc1ccc(NCc2nc3ccccc3n2C)cc1
  A = 11%[57.1 µM] | B = -3% | C = -41% | D = 14µM* | E = 12%[57.1 µM]
(30) Cn1c(CNc2ccc(O)cc2)nc2ccccc21
  A = -1% | B = -1% | C = -63% | D = -5% | E = 11%
(31) O=C(O)/C=C\C(=O)Nc1ccccc1C(=O)NCc1ccccc1
  A = 42% | B = -2% | C = -5% | D = 4µM* | E = 0%
(32) O=C(O)/C=C/C(=O)NCc1ccccc1
  A = -5% | B = 0% | C = -8% | D = -7% | E = -5%
(33) O=C(O)/C=C/C(=O)Nc1ccccc1-c1ccccc1NC(=O)/C=C/C(=O)O
  A = 8%[57.1 µM] | B = -3% | C = -1% | D = -2% | E = u
(34) O=C(O)/C=C/C(=O)Nc1ccccc1SC(F)(F)F
  A = 1% | B = 0% | C = -1% | D = 5% | E = 35µM*
(35) O=C(O)/C=C/C(=O)NNC(=O)c1ccccc1Br
  A = 2% | B = -12% | C = -16% | D = -2% | E = -4%
(36) Cc1ccccc1C(=O)NNC(=O)/C=C\C(=O)O
  A = 0% | B = -6% | C = -39% | D = -1% | E = 7.1µM*
(37) Cc1ccc(NC(=O)C2CCCN(c3nnc(C)c4c(C)n(-c5ccccc5)nc34)C2)c(Cl)c1 (configuration not stated)
  A = 9% | B = -5% | C = 16% | D = -27% | E = 32%
(38) COc1ccccc1CCNC(=O)c1ccc(NC(=O)N2CC(C)Sc3ccccc32)cc1 (configuration not stated)
  A = -1% | B = -1% | C = 18% | D = -5% | E = 4%
(39) CC(C)Oc1ccc(CNC(=O)C2=Cc3ccccc3OC2)cc1
  A = 0%[57.1 µM] | B = u | C = -18% | D = -3% | E = 17%[57.1 µM]
(40) Cc1cc(C)nc(SCc2cc(=O)c(OC(=O)c3ccc(S(=O)(=O)N4CCCC4)cc3)co2)n1
  A = 4% | B = -11% | C = -2% | D = -3% | E = 16µM*

A different layout for some results above.
[38] COc1ccccc1CCNC(=O)c1ccc(NC(=O)N2CC(C)Sc3ccccc32)cc1 (configuration not stated)
  TrxR1 substrate: -1%; Apoferritin bind: -1%; miR-21 reporter: 18%; ClpP mod: -5%; rTrxR1 inhibitor: 4%

[39] CC(C)Oc1ccc(CNC(=O)C2=Cc3ccccc3OC2)cc1
  TrxR1 substrate: 0%[57.1 µM]; Apoferritin bind: u; miR-21 reporter: -18%; ClpP mod: -3%; rTrxR1 inhibitor: 17%[57.1 µM]

[40] Cc1cc(C)nc(SCc2cc(=O)c(OC(=O)c3ccc(S(=O)(=O)N4CCCC4)cc3)co2)n1
  TrxR1 substrate: 4%; Apoferritin bind: -11%; miR-21 reporter: -2%; ClpP mod: -3%; rTrxR1 inhibitor: 16µM*

Further structures
Field names: A = TrxR1 substrate; B = Apoferritin bind; C = miR-21 reporter; D = ClpP mod; E = rTrxR1 inhibitor
(41) Cc1cc(C)nc(SCc2cc(=O)c(OC(=O)c3ccc(Br)o3)co2)n1
  A = -11% | B = -22% | C = -10% | D = -2% | E = 79µM*
(42) COC(=O)c1ccc(CCc2cc(O)ccc2O)cc1
  A = -15% | B = x | C = x | D = -8% | E = 56µM*
(43) COC(=O)c1ccc(O)cc1
  A = 11%[57.1 µM] | B = 2% | C = -3% | D = 1% | E = 3%[57.1 µM]
(44) COC(=O)c1ccc(CCc2cc(O)c(Br)cc2O)cc1
  A = 0% | B = x | C = x | D = u | E = 22µM*
(45) COc1ccc(C(C)C)cc1S(=O)(=O)NCCc1c(C)[nH]c2ccc(C)cc12
  A = -10% | B = 35% | C = u | D = -4% | E = -4%
(46) Cc1cccc(C(=O)N[C@H](C(=O)Nc2ccc(S(=O)(=O)NC3=NCCCCC3)cc2)C(C)C)c1
  A = 7%[57.1 µM] | B = -6% | C = 1% | D = 35µM* | E = -1%[57.1 µM]
(47) CCCC(C(=O)NCC1CCCO1)N(Cc1ccco1)C(=O)CNS(=O)(=O)c1ccccc1 (configuration not stated)
  A = -6% | B = -17% | C = -6% | D = 25µM* | E = 16%[57.1 µM]
(48) O=C(O)c1ccc(N(c2ccccc2)c2ccccc2)cc1
  A = 27%[57.1 µM] | B = -3% | C = -3% | D = 16µM* | E = -2%
